According to US20060275211A1 (AGENSYS, published 2006):

Target: T1, Tag5-161P2F10B, purified recombinant extracellular domain (ECD) of 161P2F10B (amino acids 46-875) (human, UniProt O14638 46-875)
T1 construct: also called recombinant 161P2F10B; Tag5-161P2F10B-ECD
Assay: SPR, MAb captured on CM5 chip, recombinant 161P2F10B 1-100 nM injected

B1: H16-7.200 (antibody, V domains shown)
VH: QVQLQESGPGLVKPSQTLSLTCTVSGGSITSGDYYWSWIRQHPGKGLEWFGFIYYSGSAYYNPSLKSRITISVDTSKNQFSLKLSSVTAADTAVYYCARERNYGGNSFDYWGQGTLVTVSS
VL: not shown
notes: Entries include the leader (VL: part of it) and a portion of the constant region; also called HA16-7.200
koff: 0.00059 s⁻¹
kon: 65000 M⁻¹ s⁻¹
